# CycPeptMPDB entries from one study

Source: CycPeptMPDB (Li et al. 2023), which took these values from Kelly et al. 2021, doi:10.1021/jacs.0c06115.

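Conditions beyond the assay type are not listed; see the original paper. The list need not hold all peptides of the study. Entries at the database's floor value (log10 P of -10) are not listed.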

PAMPA is the parallel artificial membrane permeability assay, which has no cells and reads passive diffusion.
Permeability is in 10^-6 cm/s, converted from the database's log10 values; higher is more permeable.

SMILES | PAMPA (10^-6 cm/s)
CC(=O)N1CCC[C@@H]1C(=O)N(C)[C@H](CC(C)C)C(=O)N[C@@H]1C(=O)N[C@H](CC(C)C)C(=O)N(C)[C@@H](CC(C)C)C(=O)N(C)[C@@H](CC(C)C)C(=O)N(C)[C@H](C)C(=O)N[C@H](CC(C)C)C(=O)N2CCC[C@H]2C(=O)O[C@@H]1C | 3.7
CC(=O)N1CCC[C@@H]1C(=O)N(C)[C@H](CC(C)C)C(=O)N[C@@H]1C(=O)N[C@H](CC(C)C)C(=O)N(C)[C@@H](CC(C)C)C(=O)N(C)[C@H](CC(C)C)C(=O)N(C)[C@H](C)C(=O)N[C@@H](CC(C)C)C(=O)N2CCC[C@@H]2C(=O)O[C@@H]1C | 6.5
CC(=O)N1CCC[C@@H]1C(=O)N(C)[C@H](CC(C)C)C(=O)N[C@@H]1C(=O)N[C@@H](CC(C)C)C(=O)N[C@@H](CC(C)C)C(=O)N[C@H](CC(C)C)C(=O)N[C@@H](C)C(=O)N[C@@H](CC(C)C)C(=O)N2CCC[C@@H]2C(=O)O[C@@H]1C | 0.04
CC(=O)N1CCC[C@H]1C(=O)N[C@@H]1C(=O)N(C)[C@H](CC(C)C)C(=O)N[C@H](CC(C)C)C(=O)N[C@@H](CC(C)C)C(=O)N[C@H](CC(C)C)C(=O)N[C@H](C)C(=O)N[C@@H](CC(C)C)C(=O)N2CCC[C@@H]2C(=O)O[C@@H]1C | 0.27
CC(=O)N1CCC[C@H]1C(=O)N(C)[C@H](CC(C)C)C(=O)N[C@@H]1C(=O)N(C)[C@@H](CC(C)C)C(=O)N(C)[C@H](CC(C)C)C(=O)N(C)[C@@H](CC(C)C)C(=O)N(C)[C@H](C)C(=O)N[C@H](CC(C)C)C(=O)N2CCC[C@H]2C(=O)O[C@@H]1C | 4.6
CC(=O)N1CCC[C@@H]1C(=O)N(C)[C@@H](CC(C)C)C(=O)N[C@@H]1C(=O)N(C)[C@@H](CC(C)C)C(=O)N[C@@H](CC(C)C)C(=O)N(C)[C@@H](CC(C)C)C(=O)N(C)[C@H](C)C(=O)N[C@H](CC(C)C)C(=O)N2CCC[C@@H]2C(=O)O[C@@H]1C | 4.7
CC(=O)N1CCC[C@@H]1C(=O)N(C)[C@@H](CC(C)C)C(=O)N[C@@H]1C(=O)N[C@@H](CC(C)C)C(=O)N(C)[C@@H](CC(C)C)C(=O)N(C)[C@H](CC(C)C)C(=O)N[C@@H](C)C(=O)N[C@@H](CC(C)C)C(=O)N2CCC[C@H]2C(=O)O[C@@H]1C | 0.21
CC(=O)N1CCC[C@@H]1C(=O)N(C)[C@@H](CC(C)C)C(=O)N[C@@H]1C(=O)N[C@@H](CC(C)C)C(=O)N(C)[C@H](CC(C)C)C(=O)N[C@H](CC(C)C)C(=O)N(C)[C@H](C)C(=O)N[C@@H](CC(C)C)C(=O)N2CCC[C@@H]2C(=O)O[C@@H]1C | 8.9
CC(=O)N1CCC[C@H]1C(=O)N[C@@H]1C(=O)N[C@H](CC(C)C)C(=O)N[C@H](CC(C)C)C(=O)N[C@@H](CC(C)C)C(=O)N[C@H](CC(C)C)C(=O)N[C@H](C)C(=O)N[C@@H](CC(C)C)C(=O)N2CCC[C@@H]2C(=O)O[C@@H]1C | 0.31
CC(=O)N1CCC[C@@H]1C(=O)N(C)[C@@H](CC(C)C)C(=O)N[C@@H]1C(=O)N[C@H](CC(C)C)C(=O)N[C@@H](CC(C)C)C(=O)N(C)[C@H](CC(C)C)C(=O)N(C)[C@H](C)C(=O)N[C@@H](CC(C)C)C(=O)N2CCC[C@H]2C(=O)O[C@@H]1C | 2.4
CC(=O)N1CCC[C@@H]1C(=O)N(C)[C@H](CC(C)C)C(=O)N[C@@H]1C(=O)N(C)[C@H](CC(C)C)C(=O)N(C)[C@H](CC(C)C)C(=O)N[C@@H](CC(C)C)C(=O)N[C@@H](C)C(=O)N[C@H](CC(C)C)C(=O)N2CCC[C@@H]2C(=O)O[C@@H]1C | 3.5
CC(=O)N1CCC[C@H]1C(=O)N[C@@H]1C(=O)N[C@H](CC(C)C)C(=O)N[C@@H](CC(C)C)C(=O)N[C@H](CC(C)C)C(=O)N[C@H](CC(C)C)C(=O)N(C)[C@H](C)C(=O)N[C@@H](CC(C)C)C(=O)N2CCC[C@@H]2C(=O)O[C@@H]1C | 5.8
CC(=O)N1CCC[C@H]1C(=O)N[C@@H]1C(=O)N[C@H](CC(C)C)C(=O)N[C@H](CC(C)C)C(=O)N[C@H](CC(C)C)C(=O)N[C@@H](CC(C)C)C(=O)N(C)[C@@H](C)C(=O)N[C@@H](CC(C)C)C(=O)N2CCC[C@@H]2C(=O)O[C@@H]1C | 1.1
CC(=O)N1CCC[C@H]1C(=O)N(C)[C@H](CC(C)C)C(=O)N[C@@H]1C(=O)N[C@@H](CC(C)C)C(=O)N(C)[C@@H](CC(C)C)C(=O)N(C)[C@H](CC(C)C)C(=O)N(C)[C@H](C)C(=O)N[C@H](CC(C)C)C(=O)N2CCC[C@H]2C(=O)O[C@@H]1C | 1.6

The 2 lowest values of PAMPA among the entries above:

| SMILES | PAMPA (10^-6 cm/s) |
|---|---|
| CC(=O)N1CCC[C@@H]1C(=O)N(C)[C@H](CC(C)C)C(=O)N[C@@H]1C(=O)N[C@@H](CC(C)C)C(=O)N[C@@H](CC(C)C)C(=O)N[C@H](CC(C)C)C(=O)N[C@@H](C)C(=O)N[C@@H](CC(C)C)C(=O)N2CCC[C@@H]2C(=O)O[C@@H]1C | 0.04 |
| CC(=O)N1CCC[C@@H]1C(=O)N(C)[C@@H](CC(C)C)C(=O)N[C@@H]1C(=O)N[C@@H](CC(C)C)C(=O)N(C)[C@@H](CC(C)C)C(=O)N(C)[C@H](CC(C)C)C(=O)N[C@@H](C)C(=O)N[C@@H](CC(C)C)C(=O)N2CCC[C@H]2C(=O)O[C@@H]1C | 0.21 |